Measurements as given in ChEMBL document CHEMBL1201862, “PubChem BioAssay data set” (2004).
Values joined by “and” are separate entries in the source; they are usually repeats but may differ in a detail not shown here. Identical values can stand only once. Counter-ions that a name gives are not always drawn. Blank lines part the entries; values can stand above or below the molecule they belong to. Active and inactive are the calls of the source.

Legend:
Leucine aminopeptidase = biological target: T1, Leucine aminopeptidase (Plasmodium falciparum 3D7, UniProt Q8IL11); assay: P. falciparum M17LAP inhibitors, primary screen, biochemical, fluorogenic H-Leu-NHMec substrate, 1536-well (AID 1619); assay type: functional
T1 sequence (Q8IL11 whole entry): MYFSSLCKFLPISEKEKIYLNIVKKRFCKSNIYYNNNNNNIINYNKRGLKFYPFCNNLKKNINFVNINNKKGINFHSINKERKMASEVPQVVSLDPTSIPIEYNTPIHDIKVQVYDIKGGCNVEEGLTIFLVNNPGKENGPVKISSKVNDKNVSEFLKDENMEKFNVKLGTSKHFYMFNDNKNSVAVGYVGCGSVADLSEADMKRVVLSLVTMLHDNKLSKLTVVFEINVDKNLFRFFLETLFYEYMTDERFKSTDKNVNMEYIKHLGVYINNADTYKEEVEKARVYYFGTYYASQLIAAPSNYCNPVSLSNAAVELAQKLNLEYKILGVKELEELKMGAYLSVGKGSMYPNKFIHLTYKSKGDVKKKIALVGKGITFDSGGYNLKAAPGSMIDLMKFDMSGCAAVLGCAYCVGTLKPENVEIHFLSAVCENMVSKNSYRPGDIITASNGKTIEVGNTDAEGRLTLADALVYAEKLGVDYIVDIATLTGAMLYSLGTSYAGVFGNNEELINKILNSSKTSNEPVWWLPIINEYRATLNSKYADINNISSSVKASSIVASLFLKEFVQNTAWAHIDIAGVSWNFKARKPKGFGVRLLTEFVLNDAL

Interleukin-8 = biological target: T2, Interleukin-8 (Homo sapiens, UniProt P10145); assay: SAR analysis of GM-Tri-DAP induced IL-8 secretion in MCF-7/NOD1 cells - Set 2. [Related pubchem assays (depositor defined):AID1575, AID1578, AID2333]; assay type: functional, cell-based
T2 sequence (P10145 whole entry): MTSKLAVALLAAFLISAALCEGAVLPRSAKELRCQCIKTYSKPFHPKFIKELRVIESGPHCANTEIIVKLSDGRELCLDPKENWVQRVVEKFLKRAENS

[1] = biological target: T3, Nucleotide-binding oligomerization domain-containing protein 1 (Homo sapiens, UniProt Q9Y239); assay: SAR analysis of NF-kB dependent luciferase using DAP as an inducer. [Related pubchem assays (depositor defined):AID1566, AID1575, AID1578, AID1579, AID1849, AID1852, AID2793]; assay type: functional
T3 sequence (Q9Y239 whole entry): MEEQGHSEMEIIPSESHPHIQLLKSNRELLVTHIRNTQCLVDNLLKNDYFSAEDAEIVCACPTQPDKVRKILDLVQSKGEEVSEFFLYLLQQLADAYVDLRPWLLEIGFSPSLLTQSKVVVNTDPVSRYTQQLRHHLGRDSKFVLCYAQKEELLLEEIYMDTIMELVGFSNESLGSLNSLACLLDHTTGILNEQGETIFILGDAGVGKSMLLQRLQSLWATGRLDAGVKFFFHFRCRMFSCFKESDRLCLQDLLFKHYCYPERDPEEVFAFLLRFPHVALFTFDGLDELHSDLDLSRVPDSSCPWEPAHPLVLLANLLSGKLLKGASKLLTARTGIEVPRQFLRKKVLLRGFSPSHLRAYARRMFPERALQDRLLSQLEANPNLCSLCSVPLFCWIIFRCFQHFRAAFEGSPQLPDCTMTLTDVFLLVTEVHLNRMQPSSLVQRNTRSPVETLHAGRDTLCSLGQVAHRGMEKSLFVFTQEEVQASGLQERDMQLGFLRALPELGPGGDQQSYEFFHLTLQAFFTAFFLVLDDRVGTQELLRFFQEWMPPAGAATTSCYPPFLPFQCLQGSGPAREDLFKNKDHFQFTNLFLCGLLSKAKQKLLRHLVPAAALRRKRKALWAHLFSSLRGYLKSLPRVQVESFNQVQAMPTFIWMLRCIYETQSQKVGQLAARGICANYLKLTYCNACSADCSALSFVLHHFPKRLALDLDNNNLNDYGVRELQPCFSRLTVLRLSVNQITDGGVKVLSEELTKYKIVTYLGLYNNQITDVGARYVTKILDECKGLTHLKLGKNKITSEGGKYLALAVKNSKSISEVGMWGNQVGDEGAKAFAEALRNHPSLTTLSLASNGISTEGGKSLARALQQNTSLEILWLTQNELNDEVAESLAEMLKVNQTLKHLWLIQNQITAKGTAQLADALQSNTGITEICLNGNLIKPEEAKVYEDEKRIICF

[2] = biological target: T3, Nucleotide-binding oligomerization domain-containing protein 1; assay: SAR analysis of compounds that inhibit NOD1 - Set 3. [Related pubchem assays (depositor defined):AID1566, AID1575, AID1578, AID1849, AID1852, AID2333, AID2335, AID2466]; assay type: functional
INS1 = assay: beta cell apoptosis inhibitors, cytokine rescue, dose response, luminescence, retest (AID 449756); assay type: functional, cell-based; conditions: Rattus norvegicus;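 note: cell death triggered by IL-1 beta plus TNF-alpha plus IFN-gamma mixture; protective hits raise ATP signal compared with cytokine alone wells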
[3] = cytotoxicity in HEK-293T cells, dose response, cytotoxicity control for TCR NF-kB inhibitor project, luminescence, T-cell screen hits (AID 489026); assay type: functional, cell-based;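 note: cells exposed to compound about 14 hours before the viability readout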
[4] = biological target: T4, Apoptotic protease-activating factor 1 (Homo sapiens, UniProt O14727); assay type: functional
T4 sequence (O14727 whole entry): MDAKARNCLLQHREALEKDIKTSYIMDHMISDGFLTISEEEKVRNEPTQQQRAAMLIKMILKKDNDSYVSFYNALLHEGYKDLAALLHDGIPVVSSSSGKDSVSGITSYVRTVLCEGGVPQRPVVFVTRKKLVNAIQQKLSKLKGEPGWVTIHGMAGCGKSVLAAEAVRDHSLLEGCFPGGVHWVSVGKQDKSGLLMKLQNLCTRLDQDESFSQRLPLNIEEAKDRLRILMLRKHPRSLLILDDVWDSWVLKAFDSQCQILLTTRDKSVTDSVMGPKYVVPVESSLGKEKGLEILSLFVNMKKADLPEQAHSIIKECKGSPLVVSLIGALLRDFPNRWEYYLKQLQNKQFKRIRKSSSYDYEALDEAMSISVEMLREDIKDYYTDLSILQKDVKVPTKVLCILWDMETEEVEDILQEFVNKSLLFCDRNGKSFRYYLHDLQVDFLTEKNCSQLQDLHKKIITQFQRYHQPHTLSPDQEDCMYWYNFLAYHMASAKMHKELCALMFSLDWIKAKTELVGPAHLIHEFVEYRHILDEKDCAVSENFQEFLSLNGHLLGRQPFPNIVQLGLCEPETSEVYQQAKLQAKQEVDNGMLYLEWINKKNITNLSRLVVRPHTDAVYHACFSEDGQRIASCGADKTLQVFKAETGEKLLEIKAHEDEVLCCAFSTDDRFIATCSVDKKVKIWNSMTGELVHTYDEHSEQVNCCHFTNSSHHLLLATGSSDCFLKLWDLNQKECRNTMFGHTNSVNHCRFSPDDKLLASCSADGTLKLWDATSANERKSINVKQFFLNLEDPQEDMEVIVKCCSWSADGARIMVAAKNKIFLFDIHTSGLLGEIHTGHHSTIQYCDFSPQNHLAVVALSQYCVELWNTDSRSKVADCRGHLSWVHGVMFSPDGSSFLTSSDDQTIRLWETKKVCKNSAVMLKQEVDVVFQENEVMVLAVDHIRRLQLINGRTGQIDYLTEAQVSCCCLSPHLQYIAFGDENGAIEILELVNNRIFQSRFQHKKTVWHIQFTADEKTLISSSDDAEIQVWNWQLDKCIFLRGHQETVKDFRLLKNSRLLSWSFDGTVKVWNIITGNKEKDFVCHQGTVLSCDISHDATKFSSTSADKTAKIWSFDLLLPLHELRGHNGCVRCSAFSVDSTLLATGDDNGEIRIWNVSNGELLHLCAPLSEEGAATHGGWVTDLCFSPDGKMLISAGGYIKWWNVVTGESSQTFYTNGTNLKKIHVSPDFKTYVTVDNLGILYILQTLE

IC50 (Leucine aminopeptidase): active: 47.5 µM
SMILES: O=C(CSc1n[nH]c(-c2ccccc2)n1)c1ccccc1

SMILES: Cc1ccc(S(=O)(=O)n2c(N)nc3ccccc32)cc1
IC50 (Interleukin-8): active: 596 nM and active: 551 nM | IC50 [1]: active: 0.972 µM | IC50 [2]: active: 0.257 µM

SMILES: CC[n+]1c(/C=C/N(C)c2ccccc2)oc2ccccc21
AC50 (INS1): active: 0.829 µM | IC50 [3]: inactive: > 80 µM

IC50 [4]: active: 6.41 µM
SMILES: CCCCC(CC)CNC(=N)NC(=N)NCCCCCCNC(=N)NC(=N)NCC(CC)CCCC (configuration not stated) [ALEXIDINE HYDROCHLORIDE]
